Reference: article PMC12029836, “Phytotoxicity, Cytotoxicity, and Antimicrobial Activity of Triethanolammonium Amino Acids Salts” (Molecules, 2025)

Key:
[1] = test system: C. albicans ATCC 10231; assay: Antimicrobial activity, broth microdilution MIC/MBC; format: cell-based, Candida albicans; conditions: nd—not detected
[2] = test system: L929 fibroblasts; assay: Mammalian cell cytotoxicity screening, resazurin viability; format: cell-based, mouse
[3] = test system: E. coli ATCC 8739; assay: Antimicrobial activity, broth microdilution MIC/MBC; format: cell-based, Escherichia coli; conditions: nd—not detected

## OCCN(CCO)CCO
[1]; C. albicans ATCC 10231, 24 h at 37 °C, at least 90% growth inhibition
  MIC (%): 6.25%
[1]; C. albicans ATCC 10231
  MBC (%): 25%
[2]; 24h exposure
  ED20: 0.22±0.01%
  ED50: 0.33±0.02% and 0.33%
  ED80: 0.44±0.02%
[2]; 48h exposure
  ED20: 0.12±0.01%
  ED50: 0.22±0.01% and 0.22%
  ED80: 0.33±0.02%
[3]; E. coli ATCC 8739, 24 h at 37 °C, at least 90% growth inhibition
  MIC (%): 3.13%
[3]; E. coli ATCC 8739
  MBC (%): 3.13%

“And” between values parts separate entries of the source, which are not always exact repeats. Identical values can stand only once. This is a selection: effects in other tests are not listed, and their absence says nothing.
